Reference: article PMC5963591, “Bitopic Binding Mode of an M1 Muscarinic Acetylcholine Receptor Agonist Associated with Adverse Clinical Trial Outcomes” (Molecular Pharmacology, 2018)

The chains behind the UniProt entries cited, without tags or fusion partners.
UniProt P11229, whole entry Y106C/A196G: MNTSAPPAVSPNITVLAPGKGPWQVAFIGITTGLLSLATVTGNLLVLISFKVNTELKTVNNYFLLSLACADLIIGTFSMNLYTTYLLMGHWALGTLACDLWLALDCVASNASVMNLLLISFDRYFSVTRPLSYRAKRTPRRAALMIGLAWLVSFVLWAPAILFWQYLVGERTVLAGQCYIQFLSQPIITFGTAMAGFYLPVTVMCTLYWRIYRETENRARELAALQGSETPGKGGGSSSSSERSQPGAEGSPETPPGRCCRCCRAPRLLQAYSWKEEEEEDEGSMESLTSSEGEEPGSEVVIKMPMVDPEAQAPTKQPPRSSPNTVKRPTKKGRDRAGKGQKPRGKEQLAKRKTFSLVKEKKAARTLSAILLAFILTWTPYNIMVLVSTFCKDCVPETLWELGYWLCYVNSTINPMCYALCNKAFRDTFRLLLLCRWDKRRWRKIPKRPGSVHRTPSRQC

Experiments:
[1] = biological target: T1, human M1 receptor (Homo sapiens, UniProt P11229); assay: ERK1/2 phosphorylation, CHO Flp-In human M1 cells; format: cell-based
T1 construct: expressed in transfected cells; host or cells: CHO Flp-In

[2] = biological target: T2, humanized M1 DREADD (Homo sapiens, UniProt P11229, A196G/Y106C); assay: IP1 accumulation and ERK1/2 phosphorylation at M1 DREADD, CHO Flp-In cells; format: cell-based
T2 construct: expressed in transfected cells; host or cells: CHO Flp-In

[3] = biological target: T3, human M1 mAChR (Homo sapiens, UniProt P11229); settings: 20 nM [^3H]-GSK1034702
[4] = biological target: T3, human M1 mAChR; assay: IP-One (IP1) accumulation assay, CHO Flp-In human M1 cells; format: cell-based; parameters: expressed in transfected cells; host or cells: CHO Flp-In
[5] = biological target: T3, human M1 mAChR; settings: ref Ma et al., 2009; Butcher et al., 2016; cited from earlier work

Row | Compound | ERK1/2 Phosphorylation Log10(τ/KA) [1] | ERK1/2 Phosphorylation ΔLog10(τ/KA) [1] | potency and efficacy at the M1 DREADD compared with the wild-type receptor [2] | displacement of specific [^3H]-GSK1034702 binding [3] | IP1 Emax ([4]; CHO Flp-In human M1 cells) | IP1 Accumulation ΔLog10(τ/KA) ([4]; normalized to reference ligand ACh) | IP1 Accumulation Log10(τ/KA) ([4]; transduction coefficient, wild-type M1 mAChR) | potentiation of ACh affinity [5]
1 | CCCCCCOc1nsnc1C1=CCCN(C)C1 [Xanomeline, xanomeline] | 7.1 ± 0.3 | 0.0 ± 0.3 | significant reduction in potency | only partially displaced | 98.0 ± 1.5 | 1.1 ± 0.1 | 8.2 ± 0.1 | 
2 | COc1ccc(Cn2cc(C(=O)O)c(=O)c3ccccc32)cc1 [BQCA, benzyl quinolone carboxylic acid, reference compound] |  |  |  |  |  |  |  | approximately 100 fold
